The values below come from patent US10766884B2 (Pfizer Inc., priority 2018, dated 2020).

Protein sequences, listed by entry. Tags and fused reporters are not part of them.
UniProt Q00534, whole entry: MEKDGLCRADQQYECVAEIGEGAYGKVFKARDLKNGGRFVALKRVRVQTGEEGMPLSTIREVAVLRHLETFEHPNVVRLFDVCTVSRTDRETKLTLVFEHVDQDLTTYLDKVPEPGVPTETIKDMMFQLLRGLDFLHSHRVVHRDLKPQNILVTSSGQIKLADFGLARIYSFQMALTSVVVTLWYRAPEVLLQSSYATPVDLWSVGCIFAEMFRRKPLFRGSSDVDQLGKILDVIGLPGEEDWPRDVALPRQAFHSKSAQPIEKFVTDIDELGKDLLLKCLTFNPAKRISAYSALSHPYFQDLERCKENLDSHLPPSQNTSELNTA

The target of assay [1] is CDK6 (Homo sapiens (Human), UniProt Q00534). In words: Phospho-Serine 795 Rb ELISA assay in MV4-11 cells. It is filed as cell-based. The following applies: overnight treatment, phospho-Rb S795, read-out: CDK6 pRB S795 ELISA MV4-11 cells IC50. As for the experimental part: JEKO-1 or MV4-11 cells were seeded at 15,000 or 20,000 cells per well, respectively, in 100 μL growth media and allowed to incubate at 37° C. with 5% CO2 overnight. The following day, compounds were serially diluted from a 10 mM top dose for an 11-point 3-fold dilution curve in DMSO. Compounds were intermediately diluted 1:200 into growth media prior to diluting 1:5 on cells for final concentration 10 μM to 0.1 nM in 0.1% DMSO on cells. JEKO-1 and MV4-11 cells were treated were treated overnight, at 37° C. with 5% CO2. Cells were lysed in 100 μL/well CST lysis buffer on ice and transferred to pre-coated and blocked anti-phospho-Ser795 Rb ELISA plates for overnight incubation at 4° C. Plates were washed to remove residual, unbound cellular proteins and total Rb detection antibody added for 90 minutes at 37° C. Following wash to remove unbound total Rb antibody, the HRP tagged antibody was allowed to bind for 30 minutes at 37° C. Following wash to remove unbound HRP antibody, Glo Substrate Reagent was added and incubated protected from light for 5 to 10 minutes. Plates were read in luminescence mode and IC50 values calculated.
CDK4 and CDK6 in vitro Ki (nM) data are provided using calorimetric assays. CDK4 and CDK6 cell-based IC50 (nM) data are provided for CDK4 and CDK6 using phospho-Rb S795 ELISA assays in JEKO-1 and MV4-11 cells.
Background: An ELISA detects its analyte on a solid surface through an enzyme-linked reagent.

For assay [2], the target named is CDK6/Cyclin D3 (Homo sapiens (Human), UniProt Q00534). The assay is described as follows: CDK6/Cyclin D3 mobility shift assay. It is filed as biochemical. The following applies: activated CDK6/Cyclin D3, 3.5 mM ATP, Morrison fit; read-out: CDK6_D3 Ki. The text has this:
The purpose of the CDK6/Cyclin D3 assay is to evaluate the inhibition (% inhibition, Kiapp and Ki values) in the presence of small molecule inhibitors by using a fluorescence based microfluidic mobility shift assay. CDK6/Cyclin D3 catalyzes the production of ADP from ATP that accompanies the phosphoryl transfer to the substrate peptide 5-FAM-Dyrktide (5-FAM-[…]) (SEQ ID NO:1). The mobility shift assay electrophoretically separates the fluorescently labeled peptides (substrate and phosphorylated product) following the kinase reaction. Both substrate and product are measured and the ratio of these values is used to generate % conversion of substrate to product by the LabChip EZ Reader. Typical reaction solutions contained 2% DMSO (±inhibitor), 2% glycerol, 10 mM MgCl2, 1 mM DTT, 3.5 mM ATP, 0.005% Tween 20 (TW-20), 3 μM 5-FAM-Dyrktide, 4 nM (active sites) activated CDK6/Cyclin D3 in 40 mM HEPES buffer at pH 7.5.
The reaction was stopped after 95 minutes by the addition of 50 μL of 30 mM EDTA. Ki determinations were made from a plot of the fractional velocity as a function of inhibitor concentration fit to the Morrison equation with the enzyme concentration as a variable.
For CDK4 and CDK6 mobility shift assays, see also Morrison, J. F. (1969) Kinetics of the reversible inhibition of enzyme-catalysed reactions by tight-binding inhibitors, Biochimica et biophysica acta 185, 269-286; and Murphy, D. J. (2004) Determination of accurate KI values for tight-binding enzyme inhibitors: an in silico study of experimental error and assay design, Analytical biochemistry 327, 61-67.

For the compound `CC(C)n1c([C@@H](C)O)nc2c(F)cc(-c3nc(N[C@@H]4CCN(S(C)(=O)=O)C[C@@H]4O)ncc3Cl)cc21` (single isomer, unassigned) [Example F11], the IC50 (commonly the midpoint of a concentration-inhibition curve) in assay [1] stood at 2.4 µM. For the same compound, the Ki (usually the dissociation constant of the complex between target and ligand, obtained from inhibition or displacement) in assay [2] stood at 0.0799 µM.

For `CC(C)n1c([C@@H](C)O)nc2c(F)cc(-c3nc(N[C@@H]4CCN(S(C)(=O)=O)C[C@H]4O)ncc3Cl)cc21` [Example A93, (3R,4R)-4-[(5-chloro-4-{4-fluoro-2-[(1R)-1-hydroxyethyl]-1-(propan-2-yl)-1H-benzimidazol-6-yl}pyrimidin-2-yl)amino]-1-(methanesulfonyl)piperidin-3-ol], in assay [1], the IC50 came to 0.0614 µM. Besides, the Ki in assay [2] came out at 0.0044 µM.

As to `CC(O)c1nc2c(F)cc(-c3nc(N[C@@H]4CCN(S(=O)(=O)C(F)F)C[C@H]4O)ncc3Cl)cc2n1C(C)C` (stereo partly drawn) [Example F09, (3R,4R)-4-({5-chloro-4-[4-fluoro-2-(1-hydroxyethyl)-1-(propan-2-yl)-1H-benzimidazol-6-yl]pyrimidin-2-yl}amino)-1-(difluoromethanesulfonyl)piperidin-3-ol], the inhibitory constant (Ki) in assay [2] is 0.0055 µM.

As to `CC(O)c1nc2c(F)cc(-c3nc(N[C@@H]4CCN(S(=O)(=O)C(F)F)C[C@H]4O)ncc3Cl)cc2n1C(C)C` (stereo partly drawn) [Example F10, (3R,4R)-4-({5-chloro-4-[4-flluoro-2-(1-hydroxyethyl)-1-(propan-2-yl)-1H-benzimidazol-6-yl]pyrimidin-2-yl}amino)-1-(difluoromethanesulfonyl)piperidin-3-ol], the IC50 in assay [1] amounted to 0.153 µM.

For `CC(C)n1c([C@@H](C)O)nc2c(F)cc(-c3nc(N[C@H]4CCN(S(C)(=O)=O)C[C@@H]4O)ncc3Cl)cc21` [Example F13, (3S,4S)-4-[(5-chloro-4-{4-fluoro-2-[(1R)-1-hydroxyethyl]-1-(propan-2-yl)-1H-benzimidazol-6-yl}pyrimidin-2-yl)amino]-1-(methanesulfonyl)piperidin-3-ol], the inhibition constant Ki in assay [2] was 0.0811 µM.
